The subject of experiment [1] is MG-63 cells. The experiment is described as follows: Actin filament staining of MG-63 cells. The format is cell-based, human. The following applies: 2000 ng/mL BMP-2 in 2.5% (w/v) GelMA micropattern, 6 days. On the procedure:
(§1) To evaluate the effect of osteogenic differentiation, including morphology, on the localized and controlled release of BMP-2, human osteoblast-like MG-63 cells (American Type Culture Collection, Rockville, MD, USA) were cultured onto the GelMA hydrogel micropatterned SNM for 6 days.
(§2) In particular, before the pattering process, the SNM was fixed onto the bottom of the cell culture dish using half-cured PDMS solution and dried for preventing the floating of SNM in the culture media. The cell density was 1×10^6 cells/mL, and 100 μL cells were seeded onto the BMP-2 (2000 ng/ml)-immobilized GelMA hydrogel micropatterned SNM. In addition, MG-63 cells were simultaneously cultured on SNM without BMP-2 as the control group. The cells were cultured in cell media [10% (w/w) Dulbecco's modified Eagle's medium (DMEM)] (Gibco, CA, USA) supplemented with 1% (w/w) fetal bovine serum (FBS) (Gibco) and 1% (w/w) penicillin/streptomycin (Gibco) in a humidified atmosphere containing 5% CO2 at 37° C.
After 6 days, the actin filaments were stained with Alexa Fluor 568 phalloidin fluorescent dye (Invitrogen, Eugene, OR, USA) to determine the cytoskeletal organization in MG-63 cells. Image-iT™ FX signal enhancer was used to enhance the signal-to-noise ratio of fluorescently labeled cells, and fluorescent images were acquired and processed using an Axiovert 200 inverted microscope.

Experiment [2] deals with MG-63 cells. The experiment is described as follows: Osteogenic differentiation of MG-63 cells, ARS staining of calcium deposits. The experiment is classed as cell-based, human. The following applies: 6 days. The protocol:
as §1, §2
Osteogenic differentiation was evaluated by staining the calcium deposits using the ARS staining kit (pH 4.1-4.3; Sigma-Aldrich). First, the culture medium was removed, and the cells were gently washed thrice with PBS. Next, the cells were fixed with 4% (w/v) formaldehyde for 15 min at room temperature. […]

In the case of “BMP-2: bone morphogenetic protein (30 kDa), 2000 ng/mL immobilized in GelMA hydrogel micropattern”, the “cytoskeleton (actin network) of MG-63 cells” value in the experiment with MG-63 cells [1] was “relatively rich and dense actin network”. In addition, in the experiment on MG-63 cells [2] (2000 ng/mL BMP-2 in 2.5% (w/v) GelMA micropattern), the “calcium deposits formed by MG-63 cells versus control group” value is “significantly higher”. Moreover, in the experiment on MG-63 cells [2] (2000 ng/mL BMP-2 released from 2.5% (w/v) GelMA hydrogel micropattern on SNM), the “average calcium deposition area (ARS staining, Image J)” value was “approximately 32 mm^2”.
